Data published in patent publication US5281594A, “Substituted 1-(alkoxyphenyl)piperazines with ons and antihypertensive activity” (The Upjohn Company, priority 1992, dated 1994).

The chains behind the UniProt entries cited, without tags or fusion partners.
UniProt P61169, whole entry: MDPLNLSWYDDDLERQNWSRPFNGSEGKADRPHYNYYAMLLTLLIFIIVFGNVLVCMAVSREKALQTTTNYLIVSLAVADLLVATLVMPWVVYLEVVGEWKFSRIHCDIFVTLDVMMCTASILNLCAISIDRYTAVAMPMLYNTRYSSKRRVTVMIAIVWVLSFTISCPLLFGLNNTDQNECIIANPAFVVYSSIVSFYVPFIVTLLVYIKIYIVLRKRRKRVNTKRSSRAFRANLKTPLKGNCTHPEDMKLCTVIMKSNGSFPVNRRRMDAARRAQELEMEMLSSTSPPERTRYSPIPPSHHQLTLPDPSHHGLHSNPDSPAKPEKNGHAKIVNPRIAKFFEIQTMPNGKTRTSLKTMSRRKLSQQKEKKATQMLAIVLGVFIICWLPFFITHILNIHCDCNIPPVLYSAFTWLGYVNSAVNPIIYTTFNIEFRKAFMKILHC

Molecular target: D2 receptor (Rattus norvegicus, UniProt P61169)
Experiment: biochemical
Assay type: binding

Ki: 0.177 µM
SMILES: CN1CCc2cccc3c2[C@H]1Cc1ccc(O)c(O)c1-3 [Apomorphine]
